# Antibody variant affinities, Ab-14 light chain, assay B

Antigen: PDVDLGDISGINAS, a 14-residue peptide of the SARS-CoV-2 spike HR2 region.

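The variants were designed computationally from a first round of random CDR variants and then made and measured. Group labels follow the data file (Ctrl: baseline library sampled from a position-specific scoring matrix, with some repeated check sequences; Rand: our label for a block that the file lists under HC and that is probably the random mutants of the ten best first-round binders; En: ensemble of fine-tuned language models; GP: Gaussian process model; GPLM: also part of the Gaussian process libraries; HC: hill climbing; Gen: genetic algorithm; Gibbs: Gibbs sampling; a sequence that several methods proposed may carry one label only). The scFvs were displayed on barcoded MATa yeast, the peptide on MATalpha yeast. Binding brings cells together so that they mate, and sequencing counts the barcode pairs among the diploids. Scores were corrected for input abundance and mapped to Kd with protein pairs of known affinity run in the same pool. Each pool was mated in six replicate cultures.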

The variants keep the heavy chain, the linker and the frameworks of Ab-14 (scFv order VH, a 15-residue (Gly4Ser)3 linker, VL).
VH: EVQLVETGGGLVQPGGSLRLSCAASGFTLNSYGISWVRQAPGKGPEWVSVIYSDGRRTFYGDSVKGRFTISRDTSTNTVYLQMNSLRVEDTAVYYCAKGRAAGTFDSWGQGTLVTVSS
VL: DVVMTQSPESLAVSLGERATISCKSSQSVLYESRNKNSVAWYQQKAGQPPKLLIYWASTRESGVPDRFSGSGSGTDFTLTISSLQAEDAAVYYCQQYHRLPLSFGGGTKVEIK

The parent's light chain CDRs are KSSQSVLYESRNKNSVA, WASTRES, QQYHRLPLS; each variant's own CDRs replace them letter for letter. Numbers give log10(Kd / nM), so 0 is 1 nM and 3 is 1 µM. Smaller is tighter. A mean of the replicates is given; it leaves out those without a signal. An entry "nd" has no value in the source: the pair was not observed among the diploids in any replicate. This suggests poor binding but is not conclusive. Nonspecific signal, from three strains lacking the peptide, appeared in 4% of pairings of all light chain designs, centred on 2.64 (5% of these signals below 1.59); values are not corrected for it. Also given: how often the same scFv was detected with the empty control strains. Of ten entries with the parent sequence, four were seen in most replicates (averages 0.34 to 2.37), three in one and three in none, so single entries are noisy. In the paper, a design with two or fewer of six values counts as a poor binder. A sequence measured in both rounds can read differently, since the two assays cover different ranges.

Variant KQSQSVLYESRNKNSVA, NASTRED, QQPHRLPLS [Ctrl] showed 0.62 (6 of 6 replicates; controls 0 of 18).
Variant HMSAITLGGMRAKNSVA, QMTTREN, QQYDRLPLS [En_Gen] showed 1.19 (6 of 6 replicates; controls 2 of 18).
Variant MISDLTMYGSRNVNSVA, DLSTRGK, QQYHRLPLS [En_HC] showed 0.13 (6 of 6 replicates; controls 1 of 18).
Variant HITSNMFGFGGVASNVA, ETNTLMV, QQYSKLPLM [En_Gibbs] showed 0.38 (6 of 6 replicates; controls 0 of 18).
Variant HLSDSVLYESRNKNSVA, GASTRES, QQYHRLPLL [GP_HC] showed -0.40 (6 of 6 replicates; controls 1 of 18).
Variant MISQIYNMGQFAINSVA, QASLRND, QQYDRLPLM [En_Gen] showed 2.10 (6 of 6 replicates; controls 1 of 18).
Variant KVDQSVLYESRNKNAVA, QASTRES, QDYHRLPLS [GP_Gibbs] showed 0.69 (6 of 6 replicates; controls 1 of 18).
Variant KLSQSYLYESRNKNSVA, NASTRMS, QQYHRLPLS [GP_Gen] showed 0.53 (6 of 6 replicates; controls 1 of 18).
Variant SITQLVGYGQRNKNSVA, QMETREN, QQYDRLPLS [En_HC] showed 0.14 (6 of 6 replicates; controls 0 of 18).
Variant MMSYGWLYGSRNVRNVA, DHETRES, QQYDRLPLS [En_HC] showed nd (0 of 6 replicates; controls 0 of 18).
Variant RVTIISDPYMRNRNNIA, QTSERAH, QQYQMLPLA [En_Gibbs] showed -0.85 (6 of 6 replicates; controls 0 of 18).
Variant MLSDLNKMGVRNTQSVA, DNSTRGA, QQYDRLPLS [En_HC] showed 2.10 (6 of 6 replicates; controls 0 of 18).
Variant KVWMSQLYESRNKNSVA, NASLRMS, QQYHRLPLS [GP_Gibbs] showed 0.09 (6 of 6 replicates; controls 2 of 18).
Variant KIGSATNGEKFQSNSVA, QTSTREE, QQYHRLPLS [En_HC] showed 0.36 (4 of 6 replicates; controls 0 of 18).
Variant MISDMGLHDSRLQNSVA, NNSTREA, QQYDRLPLS [En_HC] showed 1.92 (1 of 6 replicates; controls 0 of 18).
Variant ALELFEYQIMKDLNNIA, NTNTRVN, QQYMRLPFM [En_Gibbs] showed -0.17 (6 of 6 replicates; controls 1 of 18).
Variant KSSQSILYESVNKNSVA, HASTRES, QQYHRLPLS [GPLM_HC] showed 0.83 (6 of 6 replicates; controls 2 of 18).
Variant KNYQSVLYESRNKNSVA, QASTRES, QQYHRKPLS [Ctrl] showed 0.63 (6 of 6 replicates; controls 0 of 18).
Variant IISGVMLVESKHTNSVA, NAETREY, QHYDRLPLS [En_HC] showed 1.93 (6 of 6 replicates; controls 3 of 18).
Variant KLMMSGLYESRNKNSVA, EASTREQ, QDYHRLPLS [GP_Gibbs] showed 0.58 (6 of 6 replicates; controls 0 of 18).
Variant KLSQSELYDSQNKNSVA, NASTRES, QQYHRLPLS [GP_HC] showed 0.03 (6 of 6 replicates; controls 0 of 18).
Variant KSSQSVLYESRSKNSVA, DASTRES, QQYHRLPLS [Ctrl] showed 1.14 (6 of 6 replicates; controls 3 of 18).
Variant KSSQSVLYESRNKNSVA, WASTRES, QFYHRLPTS [Ctrl] showed nd (0 of 6 replicates; controls 0 of 18).
Variant KSGQGVLYESRNKNSVA, VASTRES, QQYHRLPLS [Rand] showed nd (0 of 6 replicates; controls 0 of 18).
Variant KSSISVEYQERLSNSVA, QASQRES, QQYHRLPLS [GP_Gibbs] showed 0.16 (6 of 6 replicates; controls 0 of 18).

The remaining entries, values ahead:

nd (0 of 6 replicates; controls 0 of 18) for KSDQRVLYESRNKNSVA, WASTRES, QQYGRLPLS [Ctrl].
2.09 (3 of 6 replicates; controls 0 of 18) for KSSQSVLYESRNKNSVA, WASTREI, QQYHRLPLS [Ctrl].
nd (0 of 6 replicates; controls 1 of 18) for KVSIFMLTMDNAWSSIA, NEAATRT, QQYQRLPLS [En_Gibbs].
1.76 (6 of 6 replicates; controls 0 of 18) for MISQLYNMGQFAINSVA, QASLRNE, QQYDRLPLE [En_Gen].
0.34 (6 of 6 replicates; controls 2 of 18) for MMSQVTGMGQRHYNNVA, QTSTREP, QQYDRLPLI [En_Gen].
1.04 (6 of 6 replicates; controls 0 of 18) for MISNVMNTLTRQGNNVA, DLEEREN, QQYFRLPLS [En_Gen].
0.37 (6 of 6 replicates; controls 1 of 18) for KLPFSCEYESRNKNSVA, MASTRCV, QQYHRLPLS [GP_Gibbs].
0.23 (6 of 6 replicates; controls 0 of 18) for MISDLTMYGSLNKNSVA, DLSTRGS, QQYHRLPLS [En_HC].
1.73 (4 of 6 replicates; controls 0 of 18) for KSSQSVLYESRNKNNVA, WASTRES, QQYHDLPLS [Ctrl].
nd (0 of 6 replicates; controls 0 of 18) for MFQEYVQGVEQDYNNIA, ENSYASR, QQYFRLPLA [En_Gibbs].
-0.04 (6 of 6 replicates; controls 3 of 18) for KLEQSELYESRNKNSVA, NASTRYS, QQYHRLPLS [GP_Gen].
1.36 (6 of 6 replicates; controls 0 of 18) for RMQEDLQLGTNIGNNIA, EHQTVID, QQYAHLPLQ [En_Gibbs].
0.35 (6 of 6 replicates; controls 2 of 18) for KLSTVTGTEKVKGNNVA, EMETRES, QQYNRLPLA [En_Gen].
3.69 (2 of 6 replicates; controls 2 of 18) for QSSQSVLYESRLKNSVA, WASTRES, QQYHRLPLS [Ctrl].
0.80 (6 of 6 replicates; controls 2 of 18) for LLSQSVLLESRNWNAVA, QASTRMD, QQYHRLPLS [GP_Gibbs].
1.77 (6 of 6 replicates; controls 0 of 18) for MMSQVTGSGTRHRNNVA, QTSTREP, QQYDRLPLV [En_Gen].
0.59 (6 of 6 replicates; controls 2 of 18) for KSCQSVLYESRNANSVA, SASTRES, QQYHKLPVS [Ctrl].
nd (0 of 6 replicates; controls 1 of 18) for KSSQSVLREERNKNSVA, WASTRDS, QQYHRLPLS [Ctrl].
-0.15 (6 of 6 replicates; controls 0 of 18) for KLSQSMLYESRMKNSVA, NASQRES, QQYHRLPLS [GP_Gen].
1.69 (6 of 6 replicates; controls 0 of 18) for RLYNQFTEQIQHANSIA, DRDEVDS, QQYAHLPLS [En_Gibbs].
0.10 (6 of 6 replicates; controls 0 of 18) for KLQQSHLYESRNKNSVA, NASQRES, QQYHRLPLS [GP_Gen].
0.19 (6 of 6 replicates; controls 0 of 18) for KVSQSMLYESGTKNSVA, NASYRES, QQYHRLPLS [GP_HC].
-0.15 (6 of 6 replicates; controls 0 of 18) for KVSGSQLYEERNSNSVA, NASNRES, QQYHRLPLS [GP_Gibbs].
-0.35 (6 of 6 replicates; controls 0 of 18) for KSSISDLYESRNTNSVA, EASTRES, QQYHRLPLS [GP_HC].
0.19 (6 of 6 replicates; controls 1 of 18) for KLYDMAAVTMQNIRNVA, DNSTREQ, QQYHRLPLS [En_Gen].
-0.24 (6 of 6 replicates; controls 2 of 18) for TLTQSMLMESHNKNSVA, DLSTRGS, QQYHRLPLS [En_HC].

The opening 3 entries, copied out:

CDR-L1	CDR-L2	CDR-L3	group	mean, log10 nM	replicates with signal	empty controls
KQSQSVLYESRNKNSVA	NASTRED	QQPHRLPLS	Ctrl	0.62	6 of 6	0 of 18
HMSAITLGGMRAKNSVA	QMTTREN	QQYDRLPLS	En_Gen	1.19	6 of 6	2 of 18
MISDLTMYGSRNVNSVA	DLSTRGK	QQYHRLPLS	En_HC	0.13	6 of 6	1 of 18

From the AlphaSeq antibody data of Li et al. 2023 (doi:10.1038/s41467-023-39022-2), copy in the FLAb collection.